# Measurements as given in PubChem BioAssay AID485272 (The Scripps Research Institute Molecular Screening Center, 2010).
# Amino acid sequences for entries named in this document (tags omitted).
# UniProt Q9UM07, whole entry, looked up: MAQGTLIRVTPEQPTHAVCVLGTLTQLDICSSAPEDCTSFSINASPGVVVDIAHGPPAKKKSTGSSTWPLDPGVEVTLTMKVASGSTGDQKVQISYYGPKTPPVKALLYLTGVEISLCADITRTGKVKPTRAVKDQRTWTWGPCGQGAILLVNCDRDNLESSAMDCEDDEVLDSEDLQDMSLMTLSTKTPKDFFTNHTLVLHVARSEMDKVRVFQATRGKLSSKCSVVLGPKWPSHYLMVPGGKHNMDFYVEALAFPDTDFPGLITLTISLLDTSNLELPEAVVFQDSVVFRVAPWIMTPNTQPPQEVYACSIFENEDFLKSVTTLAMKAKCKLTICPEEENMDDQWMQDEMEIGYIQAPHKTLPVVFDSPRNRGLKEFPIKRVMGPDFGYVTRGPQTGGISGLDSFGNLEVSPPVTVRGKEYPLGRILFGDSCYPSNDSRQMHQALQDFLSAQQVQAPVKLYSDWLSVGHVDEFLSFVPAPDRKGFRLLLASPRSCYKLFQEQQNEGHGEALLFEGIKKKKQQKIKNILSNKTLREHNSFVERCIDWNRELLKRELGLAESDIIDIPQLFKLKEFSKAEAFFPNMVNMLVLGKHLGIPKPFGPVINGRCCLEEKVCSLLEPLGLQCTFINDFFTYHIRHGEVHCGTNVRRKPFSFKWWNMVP
# This is a selection; strong and weak results do not stand in their true shares. The source made the active and inactive calls.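 Rule for the calls: active = percent inhibition above a cutoff equal to the mean of all tested compounds plus 3 SD (cut at about 15% in these data); inactive = the rest.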
# Molecular target: Protein-arginine deiminase type-4 (Homo sapiens) (UniProt Q9UM07)
# Test: protein arginine deiminase 4 enzyme blockade – biochemical, fluorescence polarization, 1536-well format, primary screen (AID 485272);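 note: 0% = PAD4 with RCA probe and DMSO and 100% = probe without PAD4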
# Conditions: recombinant PAD4, RCA probe fluorescence polarization; at 6.36 µM; active compounds read high
row,SMILES,inhibition
1,Cc1nn(-c2ccccc2)c2c1P(=O)(N1CCOCC1)N(C)C(c1ccccc1)=N2 (stereo not given),inactive: -2.56%
2,Cc1ccc(C(=O)OC2CN3CCC2CC3)cc1 (stereo not given),inactive: -3.54%
3,CC1CCC(C(C)C)C(OP(=O)(Nc2ccccn2)c2ccccc2)C1 (stereo not given),inactive: 1.76%
4,CN(C)C1(CNC(=O)c2ccc(S(C)(=O)=O)cc2)CCCCC1,inactive: -1.58%
5,O=C(/C=C/c1ccccc1)OC1CN2CCC1CC2 (stereo not given),inactive: 5.63%
6,O=P1(Nc2ncccn2)COc2ccccc2OC1,inactive: 0.62%
7,Nc1cccc([As](=O)(O)c2ccccc2)c1,inactive: 3.34%
8,O=[As](O)(c1cccs1)c1cccs1,inactive: -7.06%
9,Cc1ccc(OCC(=O)OC2CN3CCC2CC3)cc1 (stereo not given),inactive: 4%
10,NS(=O)(=O)c1cccc(NC(=O)COC(=O)C(O)(c2ccccc2)c2ccccc2)c1,inactive: 0.49%
11,O=P1(Nc2ccc(Br)cn2)COc2ccccc2OC1,inactive: -3.33%
12,CCC1=CC2Cc3nc4ccc(Cl)cc4c(N)c3C(C1)C2 (stereo not given),inactive: 0.33%
13,O=P1(Nc2ccccn2)COc2ccccc2OC1,inactive: -2.14%
14,CCOP(=O)(NC(=NC(C)c1ccccc1)NC(C)c1ccccc1)OCC (stereo not given),inactive: 5.17%
15,CCOP(=O)(Nc1ccc(C)cn1)OCC,inactive: 4.49%
16,CN(CCCl)Cc1cc(Cl)c(NC2=NCCN2)c(Cl)c1,inactive: 0.11%
17,Clc1n[nH]nc1-c1nn[nH][15n]1,inactive: -3.51%
18,CC(C)(C)C(=O)NC(Sc1ncccn1)C(Cl)(Cl)Cl (stereo not given),inactive: 4.36%
19,COc1ccccc1CNC(=O)COC(=O)C(O)(c1ccccc1)c1ccccc1,inactive: 2.04%
20,CN(C(=O)Cc1ccc(Cl)c(Cl)c1)[C@@H]1CCCC[C@H]1N1CCCC1,inactive: 2.1%
21,CC(C)/C=N\N=C(\N)N[N+](=O)[O-],inactive: 2.39%
22,O=[As](O)(c1ccccc1Br)c1ccccc1Br,inactive: -1.55%

row,SMILES,inhibition
1,CC1(CBr)Cn2c(nc3ccccc3c2=O)S1 (stereo not given),inactive: 1.39%
2,O=C(OC1CN2CCC1CC2)c1ccc(Cl)cc1 (stereo not given),inactive: -0.6%
3,O=[As](O)(O)c1cccnc1,inactive: -3.43%
4,COc1cc(C(=O)NCC2(N3CCOCC3)CCCCC2)cc(Cl)c1OC(C)C,inactive: -1.9%
5,CS(=O)(=O)c1ccc(Cl)c(NC(=O)COC(=O)C(O)(c2ccccc2)c2ccccc2)c1,inactive: 0.1%
6,Cc1cccc(OCC(=O)OC2CN3CCC2CC3)c1 (stereo not given),inactive: -1.39%
7,O=[As](O)(c1cccc(O)c1)c1cccc(O)c1,inactive: 1.81%
8,Nc1cccc2c([As](=O)(O)O)cccc12,active: 92%
9,Cc1ccc(NCCc2c([N+](=O)[O-])cc([N+](=O)[O-])cc2[N+](=O)[O-])cc1,inactive: -11.9%
10,CCCOP(=S)(Nc1nc(N)cc(=O)[nH]1)OCCC,inactive: -1.91%
11,COc1cc(C2NCCC3(OCCO3)C2(C)C)cc(OC)c1OC (stereo not given),inactive: 0.93%
12,CCOP(=O)(Nc1cccc2ccccc12)OCC,inactive: 1.82%
13,CCOP1(=S)c2c(C)nn(CCC#N)c2N=C(c2ccccc2F)N1C (stereo not given),inactive: 2.73%
14,O=P(Nc1nccs1)(Oc1ccccc1)Oc1ccccc1,inactive: -2.58%
15,O=P(Nc1nccs1)(c1ccccc1)c1nc2ccccc2s1 (stereo not given),inactive: 0.52%
16,CS(=O)(=O)c1cc([N+](=O)[O-])c2no[n+]([O-])c2c1,inactive: -9.46%
17,O=C(O)COc1ccc([As](=O)(O)O)cc1[N+](=O)[O-],inactive: 1.71%
18,Nc1ccccc1[As](=O)(O)c1ccccc1,inactive: -0.75%
19,NC(=O)Nc1ccc([As](=O)(O)O)cc1,inactive: 0.01%
20,N#CCCN(C(=O)COC(=O)C(O)(c1ccccc1)c1ccccc1)c1ccc(F)cc1,inactive: -2.94%
21,CN(C(=O)Cc1ccccc1)[C@@H]1CC[C@]2(CCCO2)C[C@H]1N1CCCC1,inactive: -4.17%
22,CCOP1(=S)c2c(C)nn(CCC#N)c2N=C(c2ccc(F)cc2)N1C (stereo not given),inactive: -0.91%

row,SMILES,inhibition
1,O=[N+]([O-])c1ccc2c(c1)nnn2O,inactive: 3.7%
2,CN(C)C(=O)c1cc([N+](=O)[O-])cc2c1-c1c(cc([N+](=O)[O-])cc1[N+](=O)[O-])C2=O,inactive: 0.04%
3,CN(C(=O)Cc1ccc(Cl)c(Cl)c1)[C@H]1CC[C@@]2(CCCO2)C[C@@H]1N1CCCC1,inactive: -1.29%
4,C[As](=O)(O)c1cccc(C(=O)O)c1,inactive: -0.78%
5,O=[As](O)(c1ccc(O)cc1)c1ccccc1O,inactive: 12.6%
6,COc1cc(C(=O)NCC2(N3CCOCC3)CCCCC2)ccc1OCC(C)C,inactive: -2.67%
7,Cc1ccc(OP(=O)(Nc2ccc([N+](=O)[O-])cn2)Oc2ccc(C)cc2)cc1,inactive: 0.15%
8,Cc1ccc2nc3c(c(C)c2c1)CC(C(Cl)Cl)S3 (stereo not given),inactive: -3.83%
9,ClCCSc1nnc(-c2cccnc2)o1,inactive: -1.81%
10,CC(C)c1ccc(OP(=O)(Nc2ccccn2)Oc2ccccc2F)cc1 (stereo not given),inactive: 0.29%
11,CC(C)NC(=O)NP(=O)(Oc1ccccc1)Oc1ccccc1,inactive: 1.09%
12,CCN(CC)C(=S)SC(NC=O)C(Cl)(Cl)Cl (stereo not given),inactive: 0.81%
13,O=[N+]([O-])c1cc([N+](=O)[O-])c(-c2ccn[nH]2)s1,inactive: -11.4%
14,Cc1c2c(nc3ccccc13)SC(C(Cl)Cl)C2 (stereo not given),inactive: 3.78%
15,O=C(OC1CN2CCC1CC2)C12CC3CC(CC(C3)C1)C2 (stereo not given),inactive: -1.78%
16,Cc1cc(=O)[nH]c(N[N+](=O)[O-])n1,inactive: -3.19%
17,COc1ccc2nc(NP(=O)(c3ccccc3)c3ccccc3)sc2c1,inactive: -4.41%
18,COc1cc(I)ccc1[As](=O)(O)O,inactive: 2.44%
19,COc1ccc(N/C(=N/P(=O)(N2CCOCC2)N2CCOCC2)N2CCOCC2)cc1,inactive: 1.56%
20,COP1(=S)c2c(C)nn(CCC#N)c2N=C(c2ccc(F)cc2)N1C (stereo not given),inactive: -3.11%
21,O=C(COc1ccccc1)OC1CN2CCC1CC2 (stereo not given),inactive: 3.14%
